{"sequences": {"note": "By UniProt entry, the sequences of proteins in these tests, tags left out.", "UniProt P09874, whole entry": "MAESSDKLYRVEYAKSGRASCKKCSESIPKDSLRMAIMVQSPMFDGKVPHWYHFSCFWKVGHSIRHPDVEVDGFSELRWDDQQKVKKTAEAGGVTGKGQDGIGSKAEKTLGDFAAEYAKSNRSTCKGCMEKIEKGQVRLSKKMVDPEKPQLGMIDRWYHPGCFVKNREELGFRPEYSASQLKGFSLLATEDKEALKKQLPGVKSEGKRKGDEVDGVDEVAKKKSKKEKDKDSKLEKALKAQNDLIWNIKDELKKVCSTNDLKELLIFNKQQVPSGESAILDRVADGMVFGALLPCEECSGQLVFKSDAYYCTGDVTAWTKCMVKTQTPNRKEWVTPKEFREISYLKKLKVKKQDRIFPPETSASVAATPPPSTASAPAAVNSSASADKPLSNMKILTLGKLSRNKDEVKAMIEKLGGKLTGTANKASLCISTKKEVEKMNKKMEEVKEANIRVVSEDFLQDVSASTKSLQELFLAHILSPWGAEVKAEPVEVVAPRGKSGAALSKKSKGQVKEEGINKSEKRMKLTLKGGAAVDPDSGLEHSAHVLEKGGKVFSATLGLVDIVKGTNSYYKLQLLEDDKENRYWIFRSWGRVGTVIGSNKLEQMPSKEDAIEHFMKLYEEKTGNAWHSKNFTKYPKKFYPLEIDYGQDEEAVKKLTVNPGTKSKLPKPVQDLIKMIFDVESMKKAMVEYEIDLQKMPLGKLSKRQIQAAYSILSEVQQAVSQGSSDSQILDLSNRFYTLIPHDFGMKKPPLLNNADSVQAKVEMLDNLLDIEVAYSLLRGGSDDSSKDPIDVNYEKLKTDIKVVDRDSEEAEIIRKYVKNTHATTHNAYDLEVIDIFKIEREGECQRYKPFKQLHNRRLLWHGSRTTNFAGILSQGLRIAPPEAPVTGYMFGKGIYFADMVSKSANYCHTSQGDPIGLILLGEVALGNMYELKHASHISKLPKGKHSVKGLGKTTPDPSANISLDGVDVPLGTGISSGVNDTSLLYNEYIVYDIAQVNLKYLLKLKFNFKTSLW"}, "source": "patent US6723733B2", "about": "“Sulfonamide and carbamide derivatives of 6(5H)phenanthridinones and their uses” (Guilford Pharmaceuticals, Inc., priority 2000, dated 2004)", "target": "purified recombinant human PARP (Homo sapiens, UniProt P09874)", "assay": "PARP enzyme assay (IC50), [3H]NAD incorporation", "type": "biochemical", "settings": "approximate IC50 values; 25° C., 15 minutes", "data": [{"smiles": "Cc1cccc2c(=O)[nH]c3cc(C(F)(F)F)c(NC(=O)c4ccc(F)cc4)cc3c12", "values": [{"measurement": "IC50", "value": 1270, "unit": "nM"}]}, {"smiles": "O=C(N[C@@H](CO)C(=O)O)c1ccc2c(c1)[nH]c(=O)c1ccccc12", "values": [{"measurement": "IC50", "value": 20, "unit": "nM"}]}]}
